Literature values, collected in US6803486B2, “Selective neuronal nitric oxide synthase inhibitors” (Northwestern University, priority 2001, dated 2004).

The chains behind the UniProt entries cited, without tags or fusion partners.
UniProt P29476, whole entry: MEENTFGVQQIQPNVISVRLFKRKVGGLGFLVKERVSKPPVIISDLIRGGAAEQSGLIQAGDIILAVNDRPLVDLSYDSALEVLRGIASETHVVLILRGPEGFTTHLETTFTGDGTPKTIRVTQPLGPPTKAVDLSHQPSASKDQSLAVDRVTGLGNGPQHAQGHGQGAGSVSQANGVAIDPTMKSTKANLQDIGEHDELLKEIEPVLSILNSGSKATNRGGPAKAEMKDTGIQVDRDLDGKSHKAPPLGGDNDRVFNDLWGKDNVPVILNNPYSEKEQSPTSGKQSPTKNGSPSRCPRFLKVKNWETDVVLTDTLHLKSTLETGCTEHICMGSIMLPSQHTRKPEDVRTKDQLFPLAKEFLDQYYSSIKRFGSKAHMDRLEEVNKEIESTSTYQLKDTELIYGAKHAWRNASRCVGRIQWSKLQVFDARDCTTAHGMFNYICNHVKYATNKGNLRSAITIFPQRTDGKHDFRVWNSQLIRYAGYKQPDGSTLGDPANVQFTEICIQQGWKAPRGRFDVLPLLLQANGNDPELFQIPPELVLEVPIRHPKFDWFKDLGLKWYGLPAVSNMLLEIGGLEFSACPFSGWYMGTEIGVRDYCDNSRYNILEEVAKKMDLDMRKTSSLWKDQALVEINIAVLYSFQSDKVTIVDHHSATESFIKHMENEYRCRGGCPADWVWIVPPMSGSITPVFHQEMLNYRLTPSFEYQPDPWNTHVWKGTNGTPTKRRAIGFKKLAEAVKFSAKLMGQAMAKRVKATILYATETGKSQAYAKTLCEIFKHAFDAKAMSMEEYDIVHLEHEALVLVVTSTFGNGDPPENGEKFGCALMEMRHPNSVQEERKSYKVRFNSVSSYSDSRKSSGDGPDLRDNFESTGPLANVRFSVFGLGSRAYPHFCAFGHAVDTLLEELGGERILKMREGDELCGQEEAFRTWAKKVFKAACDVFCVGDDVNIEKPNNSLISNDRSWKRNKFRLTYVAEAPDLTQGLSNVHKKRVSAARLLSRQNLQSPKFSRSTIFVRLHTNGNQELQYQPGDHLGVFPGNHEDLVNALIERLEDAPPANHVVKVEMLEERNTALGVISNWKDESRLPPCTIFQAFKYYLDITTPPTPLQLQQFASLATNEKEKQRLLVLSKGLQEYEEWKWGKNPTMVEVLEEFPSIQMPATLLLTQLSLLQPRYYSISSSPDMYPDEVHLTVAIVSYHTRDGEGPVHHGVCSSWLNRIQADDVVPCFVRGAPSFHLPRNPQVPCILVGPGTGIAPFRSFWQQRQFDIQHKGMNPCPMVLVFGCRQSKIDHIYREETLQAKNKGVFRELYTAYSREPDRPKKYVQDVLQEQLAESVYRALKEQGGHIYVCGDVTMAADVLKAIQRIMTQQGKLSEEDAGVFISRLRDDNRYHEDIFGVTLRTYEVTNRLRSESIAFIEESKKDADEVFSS

Biological target: recombinant rat nNOS (Rattus norvegicus, UniProt P29476)
Details: Table 1; ratio of Ki; data taken from literature; cited from earlier work

## N=C(NCCC[C@H](N)C(=O)NCCN)N[N+](=O)[O-]
  Selectivity eNOS/nNOS: 368
  Selectivity iNOS/nNOS: 185

## N=C(NCCC[C@H](N)C(=O)NCCCCN)N[N+](=O)[O-]
  Selectivity eNOS/nNOS: 200
  Selectivity iNOS/nNOS: 308
